System: Rattus norvegicus
Assay: Toxicity in Wistar rat assessed as lethality at 32 umol/kg, iv
Settings: in vivo

| SMILES | Activity |
| --- | --- |
| COc1ccc(CN(CC(=O)NCc2ccccc2)C(=O)CCCCCn2ccnc2/C=N/O)cc1 | Non-Toxic |
| COc1ccc(CN(CC(=O)NC(C)C)C(=O)CCCCCn2cc[n+](C)c2/C=N\O)cc1.[I-] | Non-Toxic |
| CCCCN(CC(=O)NCc1ccccc1)C(=O)CCCCCn1ccnc1/C=N/O | Non-Toxic |
| COc1ccc(CN(CC(=O)NCc2ccccc2)C(=O)CCCCCn2cc[n+](C)c2/C=N\O)cc1.[I-] | Toxic |

From ChEMBL document CHEMBL4024757, “Application of the Ugi Multicomponent Reaction in the Synthesis of Reactivators of Nerve Agent Inhibited Acetylcholinesterase” (2017)
